Marks after values point to notes of the source that are not given here.
What was measured:
[1] = system: commercial broilers (trials 1 and 2), SPF broilers (trial 3); conditions: in vivo
[2] = system: commercial broilers (trials 1 and 2), SPF broilers (trial 3); test: Immunosuppression trials 1-3: relative proventriculus weight; conditions: Trial 2, commercial broilers, Day 14 (7 dpi), mean ± standard deviation, four birds

Q: For `O=P1(N(CCCl)CCCl)NCCCO1` (centres unmarked) [CP, Cyclophosphamide monohydrate], which “Proventriculus score (severity of proventricular lesions)” value [1] is on record?
A: 1.25^a

Q: What about the Relative proventriculus weight [2] of the same molecule?
A: 0.685 ± .023^a % body weight
